# Article PMC4728560 (Scientific Reports, 2016)
# Protein sequences, listed by entry. Tags and fused reporters are not part of them. Chains listed by the source or under a name are the forms on record and can include a tag or linker.
# UniProt Q07817, with tags, fused parts or gaps DEL27-82: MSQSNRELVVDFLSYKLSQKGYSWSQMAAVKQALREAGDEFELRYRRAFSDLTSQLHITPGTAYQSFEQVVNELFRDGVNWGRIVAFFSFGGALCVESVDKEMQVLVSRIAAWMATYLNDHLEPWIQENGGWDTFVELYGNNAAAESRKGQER
# Target: T1, Bcl-xL (Homo sapiens, UniProt Q07817, DEL27-82)
# T1 construct: one containing the fragment 1-26, and the other the fragment 81-209; 6His (N, cleaved yes); made in house; host or cells: Escherichia coli BL21 (DE3) pRARE2
# Assay: Isothermal Titration Calorimetry, peptides and Bcl-xL
# Assay type: binding
# Conditions: ITC, 30 °C
# Description: In red, the conserved hydrophobic residues of the BH3 domain (named h1 (P1), h2 (P2), h3 (P3) and h4 (P4)). In green, the GD signature of BH3 domains. In blue, the conserved charged residues. […] Each experiment was carried out at 30 °C in 50 mM ammonium bicarbonate pH 9.
# Titrations were done by isothermal titration calorimetry (ITC) assays using an ITC200 calorimeter from GE-Microcal. See Supplementary Information for full details. […]
# hybrid-FLAG peptides, rabbit anti-FLAG (Sigma) and anti-rabbit-FITC (Abcam) were used.
# Isothermal Titration Calorimetry experiments
# Titrations were done by isothermal titration calorimetry (ITC) assays using an ITC200 calorimeter from GE-Microcal. Bcl-xL was used at 0.065 mM in 50mM bicarbonate ammonium […]
# pH 9. […] Titrations were carried out at 30°C. Data were analyzed using Microcal Origin software provided by the ITC manufacturer (GE-Microcal).
# High-throughput crystallization screening was performed using a Mosquito liquid transfer robot (TTP Labtech) and the sitting-drop vapor diffusion method. Crystals were obtained at 20°C by mixing 0.2μL of reservoir solution (100mM Pipes pH 7, 1.5M Tris-sodium citrate) with 0.2μL of […]
# ammonium bicarbonate pH 9.3 and by equilibrating the mixture against 40μl of reservoir
smiles,measurement,setting,value
CC[C@H](C)[C@H](NC(=O)[C@H](CCC(=O)O)NC(=O)[C@H](CCCNC(=N)N)NC(=O)[C@@H](NC(=O)[C@H](CCCCN)NC(=O)[C@H](Cc1ccc(O)cc1)NC(=O)[C@@H](NC(=O)[C@H](CC(=O)O)NC(=O)[C@H](CO)NC(=O)[C@H](Cc1ccccc1)NC(=O)[C@H](CCSC)NC(=O)[C@H](CCC(=O)O)NC(=O)[C@@H](N)CC(=O)O)[C@@H](C)CC)[C@@H](C)CC)C(=O)N[C@@H](C)C(=O)N[C@@H](CC(=O)O)C(=O)NCC(=O)N[C@@H](CC(C)C)C(=O)N[C@@H](CS)C(=O)N[C@@H](CC(C)C)C(=O)N[C@@H](CCC(=O)O)C(=O)N[C@H](C(=O)O)C(C)C [TCTP11–31],Kd,"50 mM ammonium bicarbonate pH 9 (Fig. 4B), Bcl-xL 0.043 mM, TCTP-BH3 […], read-out: Kd",10 to 15 µM
same,Kd,"50 mM ammonium bicarbonate pH 9, Bcl-xL […], TCTP-BH3 1.39 mM (Fig. 1B), read-out: dissociation constant",12 µM

# Where two headings read alike, the source gives them in different places.
